Laboratory results from PMC11181486, “Nonsymmetrically Substituted 1,1′-Biphenyl-Based Small Molecule Inhibitors of the PD-1/PD-L1 Interaction” (ACS Medicinal Chemistry Letters, 2024).

Target: PD-1/PD-L1 (Homo sapiens, UniProt Q9NZQ7)
Type: cell-based
Design: host or cells: PD-L1+ aAPC/CHO-K1 cells; PD-1 effector Jurkat cells
Conditions: PD-L1+ aAPC/CHO-K1 cells cocultured 6 h with PD-1 effector Jurkat cells; read-out: PD-1/PD-L1 blockade, NFAT reporter bioassay EC50
Description: The PD-1/PD-L1 immune checkpoint bioassay (PD-1/PD-L1 Bioassay, Promega) was conducted according to the manufacturer’s protocol. PD-L1+ aAPC/CHO-K1 cells were seeded at a density of […] in 100 μL of medium [Ham’s F12, 10% fetal bovine serum (FBS)] in 96-well white flat-bottomed plates and incubated overnight at 37 °C in the presence of 5% CO2. The next day, the medium was removed, and serial dilutions of small molecule inhibitors were added at 40 μL per well in assay buffer (RPMI1640 + 1% FBS + 1% DMSO). […] The cells were cocultured for 6 h at 37 °C with 5% CO2 followed by a 5 min equilibration at room temperature. Bio-Glo Reagent (Promega) was prepared and added at 80 μL per well. After a 15 min incubation at room temperature, luminescence was measured using a Tecan Spark microplate reader. Data are presented as fold induction of luminescence relative to DMSO-treated cells. EC50 values were calculated using the log(inhibitor) vs response variable slope (four-parameter) analysis model with GraphPad Prism software.

| SMILES | EC50 [nM] |
| --- | --- |
| Cc1c(NC(=O)c2ccc(CNCCCO)cn2)cccc1-c1cccc(NC(=O)c2ccc(CN(C)CCO)cn2)c1C [Compound 7] | 66.8 |
| Cc1c(NC(=O)c2ccc(CN(C)CCO)cn2)cccc1-c1cccc(NC(=O)c2ccc(CN(CCO)CCO)cn2)c1C [Compound 8] | 255 |
| Cc1c(NC(=O)c2ccc(CNCCO)cn2)cccc1-c1cccc(NC(=O)c2ccc(CNCCNS(C)(=O)=O)cn2)c1C [Compound 16] | 257 |
| COC(=O)[C@H](C)NCc1ccc(C(=O)Nc2cccc(-c3cccc(NC(=O)c4ccc(CN5CCCC5)cn4)c3C)c2C)nc1 [Compound 6] | 757 |
| Cc1c(NC(=O)c2ccc(CN[C@@H]3CCC[C@H]3O)cn2)cccc1-c1cccc(NC(=O)c2ccc(CN(C)CCO)cn2)c1C [Compound 1] | 208 |
| Cc1c(NC(=O)c2ccc(CNCCCO)cn2)cccc1-c1cccc(NC(=O)c2ccc(CN[C@@H]3CCC[C@H]3O)cn2)c1C [Compound 12] | 136 |
